In patent EP4745135A1 (Gluetacs Therapeutics (Shanghai) Co., Ltd., priority 2023, dated 2025):

Key:
Test in all cases: Tumor cell proliferation inhibition (CellTiter-Meiluncell luminescent cell viability assay)
[1] = tested on: Human gastric cancer cell line: MGC803; settings: MGC-803, read-out: Inhibitory activity (IC50, nM) on tumor cell proliferation, MGC803
[2] = tested on: Human non-small cell lung cancer cell line: NCI-H1975; settings: NCI-H1975, 96 h, read-out: Inhibitory activity (IC50, nM) on tumor cell proliferation, H1975
[3] = tested on: Human breast cancer cell (MCF-7); settings: MCF7, 96 h
[4] = tested on: Human mantle cell lymphoma cell line: JEKO-1; settings: JeKo-1, 96 h, read-out: Inhibitory activity (IC50, nM) on tumor cell proliferation, JEKO-1
[5] = tested on: Human multiple myeloma cell (MM.1S); settings: MM1.S, 96 h, read-out: Inhibitory activity (IC50, nM) on tumor cell proliferation, MM.1S
[6] = tested on: Human T lymphocytic leukemia cell line: Jurkat; settings: 96 h, read-out: Inhibitory activity (IC50, nM) on tumor cell proliferation, Jurkat
[7] = tested on: Human multiple myeloma peripheral blood B lymphocyte cell (RPMI-8226); settings: RPMI-8226, 96 h
[8] = tested on: Human diffuse large B-cell lymphoma cell line: TMD8; settings: TMD8, 96 h, read-out: Inhibitory activity (IC50, nM) on tumor cell proliferation, TMD8

IC50 [1]: > 10000 nM
IC50 [2]: > 10000 nM
IC50 ([3]; read-out: Inhibitory activity (IC50, nM) on tumor cell proliferation, MCF7): > 10000 nM
IC50 [4]: > 10000 nM
IC50 [5]: > 10000 nM
IC50 [6]: > 10000 nM
IC50 ([7]; read-out: Inhibitory activity (IC50, nM) on tumor cell proliferation, RPMI-8226): > 10000 nM
IC50 [8]: > 10000 nM
SMILES: Nc1cccc2c1CN(C1CCC(=O)NC1=O)C2=O (stereo not shown) [lenalidomide, reference compound]
inhibition at 0.5 µM ([3]; read-out: Inhibition Rate at 500 nM (%)): 5 to 10%
inhibition at 0.01 µM ([7]; read-out: Inhibition Rate at 10 nM (%)): 5 to 10%
